Drawing on the Kinase Knowledgebase extract (Sharma et al. 2016), this text covers IC50 for two compounds.

Amino acid sequences for entries named in this document (tags omitted). A change or cut given only in a name is not applied to a line headed by its entry.
UniProt O00329: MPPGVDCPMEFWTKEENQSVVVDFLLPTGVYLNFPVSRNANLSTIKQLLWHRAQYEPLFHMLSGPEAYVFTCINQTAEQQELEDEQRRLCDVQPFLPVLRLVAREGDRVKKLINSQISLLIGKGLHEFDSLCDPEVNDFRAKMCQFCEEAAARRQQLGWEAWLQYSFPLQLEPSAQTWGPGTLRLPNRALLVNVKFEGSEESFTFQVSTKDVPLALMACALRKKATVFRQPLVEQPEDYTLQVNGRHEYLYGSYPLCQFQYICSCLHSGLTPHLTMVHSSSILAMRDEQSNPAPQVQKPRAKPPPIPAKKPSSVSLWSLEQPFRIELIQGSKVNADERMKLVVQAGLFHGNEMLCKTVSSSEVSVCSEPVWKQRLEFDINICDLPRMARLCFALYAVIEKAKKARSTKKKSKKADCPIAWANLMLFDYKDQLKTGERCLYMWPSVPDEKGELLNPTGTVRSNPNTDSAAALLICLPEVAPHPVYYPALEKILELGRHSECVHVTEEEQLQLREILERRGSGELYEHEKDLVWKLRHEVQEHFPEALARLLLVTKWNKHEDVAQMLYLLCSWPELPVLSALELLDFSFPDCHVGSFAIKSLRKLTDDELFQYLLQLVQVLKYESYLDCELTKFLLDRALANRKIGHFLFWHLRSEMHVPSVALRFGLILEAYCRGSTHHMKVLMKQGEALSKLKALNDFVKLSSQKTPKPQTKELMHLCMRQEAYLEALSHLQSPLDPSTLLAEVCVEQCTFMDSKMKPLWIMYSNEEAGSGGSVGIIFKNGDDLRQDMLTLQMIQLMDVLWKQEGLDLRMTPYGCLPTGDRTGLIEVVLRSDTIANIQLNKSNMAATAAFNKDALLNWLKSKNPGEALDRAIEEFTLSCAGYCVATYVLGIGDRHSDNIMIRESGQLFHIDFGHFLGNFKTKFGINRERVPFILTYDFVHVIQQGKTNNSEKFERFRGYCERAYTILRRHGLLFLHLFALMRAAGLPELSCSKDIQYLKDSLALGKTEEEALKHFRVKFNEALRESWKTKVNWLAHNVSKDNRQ

Where only a bound is given, the exact number is not on record here.

Broadly, the IC50 is the midpoint of a concentration-inhibition curve.

The target in this assay is PIK3CD (Human) (UniProt O00329). In words: Assessment of PI3KCD Kinase Activity.

As to `Cc1ccccc1-n1c(Cn2nc(-c3cc(O)cc(F)c3)c3c(N)ncnc32)cc2cccc(C)c2c1=O`, the IC50 was less than 100 nM. The compound `CC(=O)Nc1nc2ccc(-c3nn(Cc4cc5cccc(C)c5c(=O)n4-c4ccccc4C)c4ncnc(N)c34)cc2s1` showed an IC50 of less than 100 nM.
